# Results: US20240409594A1, “PHOTOA[…] CHANNEL MODULATOR” (INSTITUT NATIONAL DE LA SANTÉ ET DE LA RECHERCHE MÉDICALE, priority 2021, published 2024)
# Target: human NaV1.4 channel (human) (UniProt P35499)
# Experiment: cell-based or functional assay
substance,measurement,value
Jingzhaotoxin V (peptide),IC50 of hNaV1.4 current inhibition,50.1 nM
